Results reported in paper PMC4104544 (Cell, 2014).

Amino acid sequences for entries named in this document (tags omitted). Residues count along the entry.
UniProt P08238, 2-724: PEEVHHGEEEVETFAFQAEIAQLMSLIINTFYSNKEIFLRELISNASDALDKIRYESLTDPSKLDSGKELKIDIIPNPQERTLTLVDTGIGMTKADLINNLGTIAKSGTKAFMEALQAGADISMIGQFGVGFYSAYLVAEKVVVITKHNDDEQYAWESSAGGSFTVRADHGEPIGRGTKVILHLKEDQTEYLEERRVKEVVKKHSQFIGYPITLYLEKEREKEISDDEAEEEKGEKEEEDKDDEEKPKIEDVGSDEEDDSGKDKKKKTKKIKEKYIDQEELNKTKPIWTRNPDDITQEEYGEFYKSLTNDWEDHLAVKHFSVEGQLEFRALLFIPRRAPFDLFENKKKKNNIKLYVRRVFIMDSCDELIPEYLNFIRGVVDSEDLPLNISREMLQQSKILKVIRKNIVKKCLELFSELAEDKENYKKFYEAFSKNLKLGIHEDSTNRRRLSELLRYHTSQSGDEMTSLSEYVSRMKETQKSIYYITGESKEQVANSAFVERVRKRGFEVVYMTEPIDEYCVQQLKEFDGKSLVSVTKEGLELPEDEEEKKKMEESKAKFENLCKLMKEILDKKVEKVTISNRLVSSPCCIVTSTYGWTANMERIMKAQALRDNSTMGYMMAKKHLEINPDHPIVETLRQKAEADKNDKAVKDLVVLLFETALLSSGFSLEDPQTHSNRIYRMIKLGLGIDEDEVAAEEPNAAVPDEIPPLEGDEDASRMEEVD

Biological target: Hsp90β (Homo sapiens, UniProt P08238)

## CC(C)c1cc(-c2n[nH]c(=O)n2-c2ccc3c(ccn3C)c2)c(O)cc1O [ganetespib]
  LUMIER in 293T cells: loss of client interactions after 1 h at 1 μM: Ganetespib treatment had a strong effect on most Hsp90/client interactions.
